Values of other authors, collected in US10322143B2.

By UniProt entry, the sequences of proteins in these tests, tags left out. Residues count along the entry.
UniProt Q9UNA0, 262-930 limits assumed: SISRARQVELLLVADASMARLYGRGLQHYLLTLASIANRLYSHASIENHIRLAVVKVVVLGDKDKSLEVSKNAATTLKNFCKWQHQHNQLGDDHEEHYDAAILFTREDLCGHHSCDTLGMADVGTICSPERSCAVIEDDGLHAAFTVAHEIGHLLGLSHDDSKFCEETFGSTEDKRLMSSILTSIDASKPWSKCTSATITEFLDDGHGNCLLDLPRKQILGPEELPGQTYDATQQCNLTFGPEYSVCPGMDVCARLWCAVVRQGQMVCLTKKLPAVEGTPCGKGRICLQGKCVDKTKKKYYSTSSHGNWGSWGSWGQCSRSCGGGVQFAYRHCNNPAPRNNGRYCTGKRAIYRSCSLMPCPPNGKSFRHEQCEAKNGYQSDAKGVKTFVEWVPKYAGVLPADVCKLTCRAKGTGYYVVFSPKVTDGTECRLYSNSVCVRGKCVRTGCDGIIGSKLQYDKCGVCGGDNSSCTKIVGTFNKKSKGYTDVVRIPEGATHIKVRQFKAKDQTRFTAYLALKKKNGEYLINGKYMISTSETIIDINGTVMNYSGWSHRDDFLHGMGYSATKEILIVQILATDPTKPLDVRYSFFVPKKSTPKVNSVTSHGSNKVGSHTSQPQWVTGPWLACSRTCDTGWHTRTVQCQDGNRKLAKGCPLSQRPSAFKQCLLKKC

Target: ADAMTS5 (Homo sapiens (Human), UniProt Q9UNA0)
Settings: read-out: TS-5 IC50; Deng 2012 Table 4, series 19; cited from earlier work

Q: Which IC50 does the source give for `C=CCCNc1nc(NCc2csc(-c3ccccc3)n2)nc(N2CCC[C@@H]2CNS(=O)(=O)C2CC2)n1` here?
A: > 10 µM
